Measurements reported in PMC10803289, “Transport and inhibition mechanism of the human SGLT2–MAP17 glucose transporter” (Nature Structural & Molecular Biology, 2023).

Columns and labels:
Format in all cases: cell-based
hSGLT2 F98A = target: T1, hSGLT2 F98A (Homo sapiens, UniProt P31639, F98A); assay: α-MG uptake in HEK293 cells, F98A mutant; set-up: expressed in transfected cells
T1 sequence (P31639 1-672 F98A): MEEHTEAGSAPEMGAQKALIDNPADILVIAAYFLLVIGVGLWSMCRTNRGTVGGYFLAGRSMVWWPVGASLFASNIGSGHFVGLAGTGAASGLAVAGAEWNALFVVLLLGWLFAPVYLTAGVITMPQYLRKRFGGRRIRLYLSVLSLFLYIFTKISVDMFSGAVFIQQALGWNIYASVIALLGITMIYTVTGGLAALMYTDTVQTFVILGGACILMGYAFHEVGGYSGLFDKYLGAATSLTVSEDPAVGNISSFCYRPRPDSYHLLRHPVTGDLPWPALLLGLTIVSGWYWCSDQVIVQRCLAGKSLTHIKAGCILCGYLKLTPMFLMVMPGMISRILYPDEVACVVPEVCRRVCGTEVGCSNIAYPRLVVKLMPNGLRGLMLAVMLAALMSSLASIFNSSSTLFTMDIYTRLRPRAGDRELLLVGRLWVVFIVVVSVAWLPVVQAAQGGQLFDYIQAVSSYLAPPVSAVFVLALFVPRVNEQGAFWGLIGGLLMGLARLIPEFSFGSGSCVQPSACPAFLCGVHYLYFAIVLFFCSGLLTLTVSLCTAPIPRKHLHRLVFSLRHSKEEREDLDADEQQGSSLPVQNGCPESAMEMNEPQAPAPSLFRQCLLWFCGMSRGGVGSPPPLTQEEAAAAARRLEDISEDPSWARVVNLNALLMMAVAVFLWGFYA
T1 sequence (Q13113 1-114 partner): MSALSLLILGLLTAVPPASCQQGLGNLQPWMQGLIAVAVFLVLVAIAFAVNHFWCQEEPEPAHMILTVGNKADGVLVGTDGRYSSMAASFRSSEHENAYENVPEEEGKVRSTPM
Description: (§1) hSGLT2 complementary DNA and human MAP17 cDNA were synthesized and codon-optimized for expression in human cell lines. Both cDNAs were cloned into the pcDNA3.4 vector. The hSGLT2 sequence was fused with an N-terminal signal sequence from human trypsinogen 1, a His10 tag, and sfGFP, followed by a human rhinovirus 3C protease (HRV3C protease) recognition site. Point mutations were introduced into this construct using site-directed mutagenesis. These plasmids were utilized for all experimental procedures conducted in this study. […]
(§2) Cell lysates were deproteinized by adding acetonitrile containing candesartan as the internal standard. The α-MG concentration was quantified via liquid chromatography–tandem mass spectrometry (LC–MS/MS) using the internal standard method.
(§3) Cellular protein content was determined using a bicinchoninic acid protein assay kit (Thermo Fisher Scientific). The uptake of α-MG was expressed as the ratio of concentration in the cells (in pmol per mg protein) to concentration in the medium (in pmol μl^−1); this is known as the cell-to-medium ratio (in μl per mg protein).
(§4) In the inhibition study, the cell-to-medium ratio of cells transfected with the empty vector was used as the background. The specific α-MG uptake was calculated by subtracting this background from the total cell-to-medium ratio and normalized to the uptake achieved without the inhibitor. […]

hSGLT2 F453A = target: T2, hSGLT2 F453A (Homo sapiens, UniProt P31639, F453A); assay: α-MG uptake in HEK293 cells, F453A mutant; set-up: expressed in transfected cells
T2 sequence (P31639 1-672 F453A): T1 sequence (P31639 1-672 F98A) with A98F, F453A
T2 sequence (Q13113 1-114 partner): T1 sequence (Q13113 1-114 partner)
Description: as §1, §2, §3, §4

hSGLT2 S74A = target: T3, hSGLT2 S74A (Homo sapiens, UniProt P31639, S74A); settings: S74A mutant
T3 construct: expressed in transfected cells; host or cells: Expi293 cells, crude membrane fraction
Description: as §1, §2, §3, §4

O=C(CCc1ccc(O)cc1)c1c(O)cc(O)cc1O[C@@H]1O[C@H](CO)[C@@H](O)[C@H](O)[C@H]1O [Phlorizin]
inhibition of α-MG uptake (in words) (hSGLT2 F98A): greatly impaired
inhibition of α-MG uptake (in words) (hSGLT2 F453A): greatly impaired
inhibition of α-MG uptake (in words) (hSGLT2 S74A): maintained

Positions count from the first letter of the chain named.
